Measured values reported in US20230286995A1, “METABOLICALLY STABLE PYRIMIDINYL DIHYDROQUINOXALINONES AS TUBULIN POLYMERIZATION INHIBITORS” (UNIVERSITY OF TENNESSEE RESEARCH FOUNDATION, priority 2022, published 2023).

Tested on: A375, M14, RPMI-7951, MDA-MB-231, MDA-MB-453, MDA-MB-468, PC3 and DU145
Assay: Cell proliferation inhibition assay (MTS), paclitaxel-sensitive panel
Type: cell-based
Conditions: Homo sapiens; read-out: average IC50 value on all cancer cell lines tested
Procedure: Cell proliferation inhibition assay: The cell proliferation inhibitory effects of tested compounds were first determined through MTS assay as previously described. In short, 3000 to 7500 cells were added to a 96-well cell culture plate followed by the treatment of the test compounds (0.1 nM to 3 μM) in quadruplicate after seeding and overnight incubation. After 72 hours of treatment, MTS (Promega) was added to the wells and the absorbance was measured at […] after incubating for 1.5 to 2 h. […] Briefly, A375/TxR cells (1000 cells/well) were treated with growth medium containing 0.5 nM, 1 nM, or 2 nM of 5v and incubated for over 7 days (the incubation medium was changed every 3 days). After fixing and staining with 0.5% crystal violet, the cell colonies were quantified by the Hybrid Counting module of the Keyence BZ-X700 microscope. The assay was performed in triplicate.

## CCNc1nc2c(c(N3CC(=O)Nc4cc(OC)ccc43)n1)CCC2 [Compound 5v, 4-(2-(ethylamino)-6,7-dihydro-5H-cyclopenta[d]pyrimidin-4-yl)-7-methoxy-3,4-dihydroquinoxalin-2(1H)-one]
  IC50: 0.5 nM
